Data taken from patent US10660971B2, “Compounds for targeted immunotherapy” (priority 2012, dated 2020).

Experiments:
[1] = test system: patient derived gastric tumor; assay: Survival in patient derived gastric tumor (PDX) xenograft model; assay type: in vivo, BALB/c nu/nu nude mice; conditions: 10 mg/kg intravenously, weekly for a period of 45 days; mice bearing subcutaneous patient derived gastric tumor; FIG. 4C
Description: (§1) For development of patient-derived gastric carcinoma xenograft (PDX) mouse models, female Balb/c nude mice (from SLAC, Shanghai, China) of 6-8 weeks old were used for tumor fragment implantation. Animals were fed with normal nude mice diet and housed in SPF animal facility in accordance with the Guide for Care and Use of Laboratory Animals and regulations of the Institutional Animal Care and Use Committee. Patent STO #69 gastric tumor fragments of about 15-30 mm^3 in size were implanted (s.c.) into right flanks of Balb/c nude mice.
(§2) Drugs were administered by i.v. route with 5˜20 mg/kg of antibody or 20 mg/kg of Tarceva or reference drug, QWKx3. Tumors were measured once a week by caliper to determine its subcutaneous growth. Tumors were measured twice a week in two dimensions with calipers. Tumor volume was calculated using following formula: tumor volume=(length×width2)×0.5. Average tumor volumes or body weights were plotted using graph program Prism 5 (GraphPad). An endpoint for efficacy study was set at 30-45 days post-first treatment or when a tumor size reached above 2000 mm3, whichever came first. If a mouse lose more than 20% of body weight or is very sick and cannot get to adequate food or water, it will be removed from the study and euthanized. Tumors were collected from mice at the end point, half frozen in LN2 and half fixed in formalin for preparing FFPE tissues.

[2] = Body weight variations of mice in PDX gastric tumor model; assay type: in vivo, BALB/c nu/nu nude mice; conditions: 10 mg/kg intravenously, weekly for a period of 45 days, FIG. 4B
Description: as §1, §2

Substance | Survival curves of treatment and control groups [1] | Body weight variations of the mice during and after therapy [2]
Trastuzumab: humanized monoclonal antibody that acts on human epidermal growth factor receptor extracellular domain of Her2 | substantial prolongation | No detectable weight loss
Trastuzumab MC-vc-TLRL | substantial prolongation | No detectable weight loss
